## Antibody variant affinities, Ab-91 heavy chain, assay 2

Antigen: PDVDLGDISGINAS, a 14-residue peptide of the SARS-CoV-2 spike HR2 region.

Ab-91 is the parent antibody, in scFv form: VL, then a (GGGGS)3 linker, then VH. The light chain is unchanged in all variants.
VL: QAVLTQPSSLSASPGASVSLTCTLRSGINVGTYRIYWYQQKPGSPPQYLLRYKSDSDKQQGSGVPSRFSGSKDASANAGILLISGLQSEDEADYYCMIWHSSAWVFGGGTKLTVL
VH: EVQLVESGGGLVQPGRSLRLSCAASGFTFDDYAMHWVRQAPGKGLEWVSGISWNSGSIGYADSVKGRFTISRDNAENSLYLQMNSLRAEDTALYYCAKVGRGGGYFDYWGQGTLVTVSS

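The starting antibody came from a phage panning campaign against this peptide. AAYL51 was designed without a model: most single CDR substitutions and a random sample of double and triple ones. In AlphaSeq, yeast of one mating type display the scFv and yeast of the other type display the target. Binding brings cells together so that they mate, and sequencing counts the barcode pairs among the diploids. A regression on co-assayed BCL2-family reference pairs converts the normalised counts of each replicate to an apparent Kd. The assay was run in three technical replicates.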

Each variant is given by its three heavy chain CDRs, as the data file delimits them; those of the parent are GFTFDDYAMH, GISWNSGSIGYADSVK, VGRGGGYFDY. Values are log10 of the apparent Kd in nM; lower means stronger binding. "n.d." means that the variant was in the library but no mating with the target was seen in that replicate; the authors take this as a sign of poor binding, and no number exists. Empty control strains, which show no peptide, gave a signal in 21% of pairings with library AAYL51; the median was 4.54 and 95% of these signals were weaker than 3.26. No background was subtracted. For each scFv, signals with the empty controls are counted beside the result, with their mean in brackets.

CDR-H1 | CDR-H2 | CDR-H3 | log10 Kd, replicates | empty controls
HFTFDDYAMH | GISPGSGSIGYADSVK | VGRGGGYFDY | n.d. n.d. n.d. | 0 of 9
GFTFDDYAMH | GISWWSGSIGYALSVK | VGRGGGYFQY | n.d. n.d. n.d. | 1 of 9 (3.94)
GFTRDDYAMH | GISWNSGSIGYADSVK | VGRGGGYFDY | 4.96 n.d. n.d. | 3 of 9 (4.86)
GFTFPDYAMH | GISWNSPSIGYADSVK | VGRGGGYWDY | n.d. n.d. n.d. | 1 of 9 (3.11)
GFTFDDYAMH | GISWNSGSIGRADSVD | VPRGGGYFDY | 6.03 4.24 4.80 | 3 of 9 (4.81)
GCTFDDYAMH | CISWNSFSIGYADSVK | VGRGGGYFDY | n.d. 4.45 4.32 | 2 of 9 (4.69)
GFTFDDYAMH | GISWNSGSIGYADSVG | VGMGGGYFDY | 2.69 2.09 1.52 | 0 of 9
GFTFDDYAMH | GISWNSGSTGYADSVK | VGRGGGYFDC | n.d. n.d. n.d. | 0 of 9
GFTFDDYAMH | GISWNSGSNGYADSVK | VARGGGYFDY | 2.45 n.d. 1.81 | 0 of 9
GFTVDDYAMH | GISWNSGSIGYADSVK | VGRGGPNFDY | 4.67 n.d. n.d. | 1 of 9 (4.45)
GFTFDDYAMH | GISWNSGSIRYMWSVK | VGRGGGYFDY | n.d. n.d. 2.97 | 1 of 9 (4.26)
GFTFDVIAMH | GISNNSGSIGYADSVK | VGRGGGYFDY | 3.48 n.d. n.d. | 2 of 9 (4.07)
GFTFDDYANH | GISWNSGSIGNADSVK | VGLGGGYFDY | n.d. n.d. n.d. | 2 of 9 (3.46)
GFAFDDYAMH | AISWNSGSIGYADSVK | VGMGGGYFDY | n.d. n.d. n.d. | 2 of 9 (3.53)
GFTFDDEGMH | GISWNSGKIGYADSVK | VGRGGGYFDY | n.d. 5.08 n.d. | 3 of 9 (5.04)
GATFHDQAMH | GISWNSGSIGYADSVK | VGRGGGYFDY | 4.70 4.35 n.d. | 4 of 9 (3.82)
GFTFDDYAMH | GISWNSGSIGEADTVK | VGHGGGYFDY | 5.88 6.44 n.d. | 4 of 9 (4.40)
GFTFDDYAMH | GISWHSGSIGYADSVK | VGRGGGYFDY | n.d. n.d. n.d. | 0 of 9
GFTFDDYAML | GISWNSGSIGYADSVK | VGRGGGYFDD | 4.62 4.42 5.48 | 5 of 9 (4.61)
GFTFDDYAMH | GISWNWRSPGYADSVK | VGRGGGYFDY | n.d. n.d. n.d. | 1 of 9 (4.66)
GFTFDDYAFH | GISWNSGSIVYMDSVK | VGRGGGYFDY | 4.09 n.d. 5.38 | 6 of 9 (4.52)
EFTFDDYAMH | GISWNSGSIGYADSVK | VGRGSGYFDE | 4.92 5.15 4.37 | 6 of 9 (4.24)
GFEFDEYAGH | GISWNSGSIGYADSVK | VGRGGGYFDY | n.d. n.d. n.d. | 0 of 9
GFTSDDYAMH | GISWDSGSIGYADSVK | VGRIGGYFDY | n.d. n.d. n.d. | 2 of 9 (4.51)
GFTFDDYAMH | GISANSGSIGYADSVK | AGPGGGYFDY | 4.23 5.64 n.d. | 2 of 9 (4.59)
GFTFDDGAMH | GISWNSGSIGYAFLVK | VGRGGGYFDY | 4.24 n.d. n.d. | 2 of 9 (4.19)
VFTFDDDAMH | GISWNSGSIGYADSVK | VGRTGGYFDY | 3.41 n.d. n.d. | 0 of 9
GFTFTDYAMH | GISWNSGSIGYADSVK | VGNDGGYFDY | n.d. n.d. n.d. | 0 of 9
GFTFDDMAMH | GISWSSWSIGYADSVK | VGRGGGYFDY | n.d. n.d. 3.51 | 1 of 9 (4.15)
GFTFDDYAMH | GISWNSGAQGHADSVK | VGRGGGYFDY | n.d. n.d. n.d. | 0 of 9
GFTFTDYAMH | GLSWNSGSIGYADSVK | VGRGGGYFDY | 2.44 2.48 2.35 | 3 of 9 (4.34)
KFIFDDYAMH | GISGNSGSIGYADSVK | VGRGGGYFDY | 2.46 2.43 2.90 | 3 of 9 (4.33)
GFTFDDYAMH | GISWNSGSQGYSDSVK | VGSGGGYFDY | 1.19 1.11 0.58 | 4 of 9 (3.80)
GFTFDDYAMC | GISWNSGSIGYADSVK | VGRGGGAFDY | 5.65 5.88 4.64 | 6 of 9 (5.05)
GFTFDDYAMH | GISWNSGSIGYADSVI | VWGGGGYFDY | n.d. n.d. n.d. | 0 of 9

Repeated from above, the 5 best binders with a signal in all replicates:

| CDR-H1 | CDR-H2 | CDR-H3 | log10 Kd, replicates | empty controls |
|---|---|---|---|---|
| GFTFDDYAMH | GISWNSGSQGYSDSVK | VGSGGGYFDY | 1.19 1.11 0.58 | 4 of 9 (3.80) |
| GFTFDDYAMH | GISWNSGSIGYADSVG | VGMGGGYFDY | 2.69 2.09 1.52 | 0 of 9 |
| GFTFTDYAMH | GLSWNSGSIGYADSVK | VGRGGGYFDY | 2.44 2.48 2.35 | 3 of 9 (4.34) |
| KFIFDDYAMH | GISGNSGSIGYADSVK | VGRGGGYFDY | 2.46 2.43 2.90 | 3 of 9 (4.33) |
| EFTFDDYAMH | GISWNSGSIGYADSVK | VGRGSGYFDE | 4.92 5.15 4.37 | 6 of 9 (4.24) |

Data: MIT Lincoln Laboratory AlphaSeq set, Engelhart et al. 2022, doi:10.1038/s41597-022-01779-4, as distributed in FLAb.